Molecular target: α7 nACh receptor (UniProt P22770+P23979, M226I/T225I)
Protocol: Human 5-HT3A subunit cDNA (Accession: P46098, kindly provided by J. Peters, Dundee University, UK) was cloned into pcDNA3.1 for expression in HEK293 cells. […] Cells were transiently transfected with either of these cDNA constructs using polyethyleneimine (PEI: 25 kDa, linear, powder, Polysciences Inc., Eppelheim, Germany). 30 μl of PEI (1 mg ml^−1), 5 μg cDNA and 1 ml DMEM were incubated for 10 min at room temperature, added drop wise to a 90 mm plate of 70–80% conﬂuent HEK293 cells, and incubated for 2–3 days before use.
Transfected HEK 293 cells were scraped into 0.6 ml of ice-cold 10 mM HEPES buffer (pH 7.4) and frozen. After thawing, they were washed with HEPES buffer, homogenised by trituration through a 25 gauge (0.5 mm) needle, and 50 μg of cell suspension incubated in 0.5 ml HEPES buffer containing different concentrations of radioligand. […] Equilibrium reactions were incubated on ice for at least 1 h and terminated by vacuum filtration onto Whatman GF/B filters wetted with 0.3% polyethyleneimine, followed by two rapid washes with 2.5 ml ice cold buffer. Radioactivity was measured by scintillation in Ultima Gold XR (Perkin Elmer, Waltham, MA) using a Tri-Carb 2100 TR (PerkinElmer) scintillation counter. Final counts were monitored to ensure that binding never exceeded 10% of the added concentrations of radioligands.
All data were analysed using GraphPad Prism v5. […]

Protein sequences, listed by entry. Tags and fused reporters are not part of them. Lines headed by an entry give the natural chain unless they say otherwise; changes in a name come on top. Chains listed by the source or under a name are the forms on record and can include a tag or linker.
α7 nACh receptor (UniProt P22770+P23979, M226I/T225I), UniProt P22770+P23979, fused P22770:T225I/P22770:M226I: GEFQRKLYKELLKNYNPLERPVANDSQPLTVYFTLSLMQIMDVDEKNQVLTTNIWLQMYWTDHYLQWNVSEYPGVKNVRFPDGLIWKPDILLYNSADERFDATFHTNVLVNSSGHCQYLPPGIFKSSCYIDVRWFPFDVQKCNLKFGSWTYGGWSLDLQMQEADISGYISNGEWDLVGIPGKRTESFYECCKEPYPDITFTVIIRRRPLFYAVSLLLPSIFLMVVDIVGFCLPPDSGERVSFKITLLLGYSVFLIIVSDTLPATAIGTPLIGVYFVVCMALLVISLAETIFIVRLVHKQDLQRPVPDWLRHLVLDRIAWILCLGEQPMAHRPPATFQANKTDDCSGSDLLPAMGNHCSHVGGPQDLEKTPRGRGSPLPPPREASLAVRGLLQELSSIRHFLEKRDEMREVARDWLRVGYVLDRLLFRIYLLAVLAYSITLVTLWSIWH
UniProt P22770: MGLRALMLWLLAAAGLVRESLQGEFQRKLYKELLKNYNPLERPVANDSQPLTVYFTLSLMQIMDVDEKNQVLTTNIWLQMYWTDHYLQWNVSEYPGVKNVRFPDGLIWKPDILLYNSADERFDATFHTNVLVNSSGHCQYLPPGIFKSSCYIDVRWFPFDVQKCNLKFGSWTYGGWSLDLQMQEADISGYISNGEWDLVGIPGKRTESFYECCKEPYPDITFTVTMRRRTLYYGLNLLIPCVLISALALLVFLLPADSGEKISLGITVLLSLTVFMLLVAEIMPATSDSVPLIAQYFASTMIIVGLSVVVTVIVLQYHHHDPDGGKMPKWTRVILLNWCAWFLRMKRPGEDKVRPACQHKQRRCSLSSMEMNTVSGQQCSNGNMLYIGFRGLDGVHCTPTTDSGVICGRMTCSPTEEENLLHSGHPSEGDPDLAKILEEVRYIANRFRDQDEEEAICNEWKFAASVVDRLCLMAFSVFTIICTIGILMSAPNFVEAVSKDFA
UniProt P23979: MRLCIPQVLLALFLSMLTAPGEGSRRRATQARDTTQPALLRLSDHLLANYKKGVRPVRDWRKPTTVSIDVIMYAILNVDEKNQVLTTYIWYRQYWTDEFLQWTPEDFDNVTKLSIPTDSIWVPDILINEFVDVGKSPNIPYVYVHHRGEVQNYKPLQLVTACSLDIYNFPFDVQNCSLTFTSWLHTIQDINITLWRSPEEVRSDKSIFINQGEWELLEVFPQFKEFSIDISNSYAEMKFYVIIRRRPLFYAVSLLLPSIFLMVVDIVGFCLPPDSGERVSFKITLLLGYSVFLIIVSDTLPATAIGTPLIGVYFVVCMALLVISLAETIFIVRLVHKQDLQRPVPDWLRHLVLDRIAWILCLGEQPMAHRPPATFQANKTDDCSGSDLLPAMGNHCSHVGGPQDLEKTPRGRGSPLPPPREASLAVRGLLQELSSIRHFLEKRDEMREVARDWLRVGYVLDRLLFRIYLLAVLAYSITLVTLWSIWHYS

CN1C2CCCC1CC(NC(=O)c1nn(C)c3ccccc13)C2 (stereo not shown) [[^3H]granisetron]
saturation binding: could not be detected

Reference: paper PMC5464333, “The binding orientations of structurally-related ligands can differ; A cautionary note” (Neuropharmacology, 2017)
